These results are taken from patent US20160030426A1, “HETEROARYL COMPOUNDS AND USES THEREOF” (CELGENE AVILOMICS RESEARCH, INC., priority 2013, published 2016).

Chains of the proteins cited; added tags and fusions are not shown. Lines headed by an entry give the natural chain unless they say otherwise; changes in a name come on top.
UniProt Q06187: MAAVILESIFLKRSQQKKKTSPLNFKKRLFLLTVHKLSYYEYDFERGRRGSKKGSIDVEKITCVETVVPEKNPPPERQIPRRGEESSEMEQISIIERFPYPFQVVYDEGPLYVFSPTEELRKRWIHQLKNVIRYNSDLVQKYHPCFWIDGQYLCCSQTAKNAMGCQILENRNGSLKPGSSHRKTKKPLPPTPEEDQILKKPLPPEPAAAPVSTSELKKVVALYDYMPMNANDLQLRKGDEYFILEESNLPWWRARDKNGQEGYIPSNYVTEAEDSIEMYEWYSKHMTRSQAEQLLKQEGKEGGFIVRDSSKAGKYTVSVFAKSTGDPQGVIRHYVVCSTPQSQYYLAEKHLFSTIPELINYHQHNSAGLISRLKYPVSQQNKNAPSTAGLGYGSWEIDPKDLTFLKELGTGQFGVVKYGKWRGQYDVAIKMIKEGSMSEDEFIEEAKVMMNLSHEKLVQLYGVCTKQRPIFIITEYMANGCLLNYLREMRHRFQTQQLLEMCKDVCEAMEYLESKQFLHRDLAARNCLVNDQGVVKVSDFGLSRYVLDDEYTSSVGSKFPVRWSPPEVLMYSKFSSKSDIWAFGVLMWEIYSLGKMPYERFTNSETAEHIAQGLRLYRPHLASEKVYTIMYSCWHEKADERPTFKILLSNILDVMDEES

Each structure is given as a SMILES string. A value given as a limit tells only on which side of the number the result lay.

The assay has as its target BTK (Homo sapiens, UniProt Q06187). The experiment in a line: Omnia assay for potency assessment against BTK. The format is biochemical. The following applies: [BTK]=5 nM, [ATP]=40 mM, [Y5-Sox]=10 mM; 30 min pre-incubation at 27° C.; read-out: BTK Inhibition. The protocol:
5 μL of each enzyme were pre-incubated in a Corning (#3574) 384-well, white, non-binding surface microtiter plate (Corning, N.Y.) for 30 min. at 27° C. with a 0.5 μL volume of 50% DMSO and serially diluted compounds prepared in 50% DMSO. Kinase reactions were started with the addition of 45 μL of the ATP/Tyr-Sox peptide substrate mix and monitored every 30-90 seconds for 60 minutes at λex360/λem485 in a Synergy^4 plate reader from BioTek (Winooski, Vt.). At the conclusion of each assay, progress curves from each well were examined for linear reaction kinetics and fit statistics (R^2, 95% confidence interval, absolute sum of squares). Initial velocity (0 minutes to ˜30 minutes) from each reaction was determined from the slope of a plot of relative fluorescence units vs time (minutes) and then plotted against inhibitor concentration to estimate IC50 from log[Inhibitor] vs Response, Variable Slope model in GraphPad Prism from GraphPad Software (San Diego, Calif.).

For `[2H]C([2H])([2H])OC([2H])([2H])C([2H])([2H])Oc1ccc(Nc2ncc(F)c(Nc3cccc(NC(=O)C=C)c3)n2)cc1` [II-7], the IC50 was at most 10 nM.
